# Source: BindingDB's records for patent US8633183 (Boehringer Ingelheim International, 2014)
# The chains behind the UniProt entries cited, without tags or fusion partners.
# UniProt P42336, whole entry: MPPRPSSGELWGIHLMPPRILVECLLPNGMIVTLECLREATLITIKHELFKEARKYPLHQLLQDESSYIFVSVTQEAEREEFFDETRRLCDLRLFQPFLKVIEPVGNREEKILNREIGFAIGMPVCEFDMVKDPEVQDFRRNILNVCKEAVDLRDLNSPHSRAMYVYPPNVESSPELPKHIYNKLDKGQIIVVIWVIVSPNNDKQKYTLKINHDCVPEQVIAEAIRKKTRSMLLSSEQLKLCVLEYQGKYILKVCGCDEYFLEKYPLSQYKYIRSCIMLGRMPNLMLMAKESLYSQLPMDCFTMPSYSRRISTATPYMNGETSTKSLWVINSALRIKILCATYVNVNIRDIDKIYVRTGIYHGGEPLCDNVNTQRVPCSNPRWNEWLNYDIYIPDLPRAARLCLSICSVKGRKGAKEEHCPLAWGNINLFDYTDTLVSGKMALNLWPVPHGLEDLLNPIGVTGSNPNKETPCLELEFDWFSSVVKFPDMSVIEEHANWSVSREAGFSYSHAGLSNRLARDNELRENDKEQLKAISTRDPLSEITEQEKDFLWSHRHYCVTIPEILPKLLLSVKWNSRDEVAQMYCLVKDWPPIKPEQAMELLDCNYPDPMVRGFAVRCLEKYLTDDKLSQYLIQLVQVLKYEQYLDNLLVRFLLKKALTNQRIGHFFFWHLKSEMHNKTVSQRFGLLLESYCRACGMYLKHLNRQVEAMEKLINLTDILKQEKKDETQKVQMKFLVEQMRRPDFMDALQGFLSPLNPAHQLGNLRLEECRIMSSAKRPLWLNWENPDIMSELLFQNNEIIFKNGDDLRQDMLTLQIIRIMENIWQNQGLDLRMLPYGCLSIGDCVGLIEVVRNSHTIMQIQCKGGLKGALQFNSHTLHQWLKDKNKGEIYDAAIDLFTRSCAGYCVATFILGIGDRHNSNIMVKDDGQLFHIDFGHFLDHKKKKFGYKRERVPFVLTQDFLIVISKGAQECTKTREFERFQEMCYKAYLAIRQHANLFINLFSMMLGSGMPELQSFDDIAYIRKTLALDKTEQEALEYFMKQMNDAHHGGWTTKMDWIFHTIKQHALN
# Molecular target: Phosphatidylinositol 4,5-bisphosphate 3-kinase catalytic subunit alpha isoform (Homo sapiens, UniProt P42336)
smiles,measurement,value
"CCc1ncnc(-c2ccc(C(=O)N3CCC(N(C)C)C3)c(C)c2)c1C#Cc1ccc(N)nc1 (stereo unspecified) [US8633183, E-126]",IC50,195 nM
